The target of the assay is NAMPT (Homo sapiens (Human), UniProt P43490). As to the kind of experiment: Biochemical Inhibition Assay (NAMPT enzymatic reaction, NMN by mass spectrometry). The following applies: recombinant His-tagged NAMPT 33 nM, 1 μM NAM, 30 minutes; read-out: Biochem IC50. The protocol:
Biochemical Inhibition Assay NAMPT Protein Purification Recombinant His-tagged NAMPT was produced in E. coli cells, purified over a Ni column, and further purified over a size-exclusion column by XTAL Biostructures. The NAMPT Enzymatic Reaction The NAMPT enzymatic reactions were carried out in Buffer A (50 mM Hepes pH 7.5, 50 mM NaCl, 5 mM MgCl2, and 1 mM THP) in 96-well V-bottom plates. The compound titrations were performed in a separate dilution plate by serially diluting the compounds in DMSO to make a 100× stock. Buffer A (89 μL) containing 33 nM of NAMPT protein was added to 1 μL of 100× compound plate containing controls (e.g. DMSO or blank). […] Background and signal strength was determined by addition (or non-addition) of a serial dilution of NMN to a pre-quenched enzyme and cofactor mix. Quantification of NMN A mass spectrometry-based assay was used to measure the NAMPT reaction product (NMN) and the internal control (L-Cystathionine). NMN and L-Cystathionine were detected using the services of Biocius Lifesciences with the RapidFire system. […] The components of the sample were ionized with electrospray ionization and the positive ions were detected. […] The fragments are quantified and the analyzed by the following method. % Inhibitions are Determined Using this Method. […] IC50s are Determined Using Excel and this Formula. […]

Amino acid sequences for entries named in this document (tags omitted). A change or cut given only in a name is not applied to a line headed by its entry.
UniProt P43490: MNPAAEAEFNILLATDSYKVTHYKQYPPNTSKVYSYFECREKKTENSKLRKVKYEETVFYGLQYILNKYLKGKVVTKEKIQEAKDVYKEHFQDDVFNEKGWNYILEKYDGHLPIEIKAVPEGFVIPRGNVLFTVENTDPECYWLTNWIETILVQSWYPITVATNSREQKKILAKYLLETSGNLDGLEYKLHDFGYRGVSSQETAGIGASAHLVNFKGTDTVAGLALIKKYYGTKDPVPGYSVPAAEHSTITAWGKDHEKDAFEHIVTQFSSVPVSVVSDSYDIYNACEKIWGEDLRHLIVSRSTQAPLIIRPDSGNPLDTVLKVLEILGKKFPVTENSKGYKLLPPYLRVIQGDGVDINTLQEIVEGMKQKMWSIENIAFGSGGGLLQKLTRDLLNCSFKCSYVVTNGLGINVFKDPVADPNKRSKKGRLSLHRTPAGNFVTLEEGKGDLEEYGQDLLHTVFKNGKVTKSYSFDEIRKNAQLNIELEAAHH

Broadly, the IC50 is the point on the concentration scale where inhibition reaches its midpoint. In the case of `N#CN=C(NCc1ccc(S(=O)(=O)c2cccc3c2OCO3)cc1)Nc1ccncc1` [1-{[4-(2H-1,3-benzodioxole-4-sulfonyl)phenyl]methyl}-2-cyano-3-(pyridin-4-yl)guanidine], the IC50 came to 5.1 nM.

On to `N#CN=C(NCc1ccc(S(=O)(=O)c2ccc(-n3cccn3)c(F)c2)cc1)Nc1ccncc1` [2-cyano-1-[(4-{[3-fluoro-4-(1H-pyrazol-1-yl)benzene]sulfonyl}phenyl)methyl]-3-(pyridin-4-yl)guanidine], for which the IC50 came to 6.1 nM.

Values taken from patent US9676721B2, “Compounds and compositions for the inhibition of NAMPT” (FORMA TM, LLC, priority 2010, dated 2017).
